Tested on: cardiomyocytes
Assay: Myocardiocyte apoptosis experiment, TUNEL assay after 0.03% H2O2
Format: cell-based, Wistar rat
Method: An 8 weeks old Wistar rat was injected with ketamine and pentobarbital to quickly kill the mouse, and its heart was quickly separated from the mouse. An aorta was used to perfuse with a Ca free Krebs-Henseleit buffer (KHB) solution which was pre-heated to a temperature of about 34° C. to about 37° C. Thereafter, the KHB solution was switched to Hank's balanced salt solution (HBSS:GIBCO, Grand Island, N.Y.) containing 0.15% class II collagenase (Cooper Biomedical, Malvern, Pa.) and then was used to perfuse the aorta for about 30 to about 40 minutes. Thereafter, the product obtained therefrom was washed twice with a cell culture medium (Dulbecco's modified Eagle's medium, DMEM). Ventricles and atria were separated each other and only ventricular tissues were finely chopped and then stirred thoroughly for 5 minutes in a shaker filled with culture medium (DMEM) containing class II collagenase that was pre-heated to a temperature of about 34° C. to about 37° C. Connective tissues that were not dissolved were filtered and a collagenase-containing solution was washed twice with the culture medium (DMEM). The product obtained therefrom was softly centrifuged at a speed of 10 g for 2 minutes, a supernatant obtained therefrom was separated and removed, and cell components were washed three times with a culture medium (DMEM) solution containing 1% fetal bovine serum (FBS; Sigma Chemical, St. Louis, Mo.). Thereafter, the cells obtained therefrom were stabilized in a culture medium, 10% FBS, 10 mM N-2-hydroxyethylpiperazine-N′-2-ethanesulfonic acid (HEPES, GIBCO Laboratories, Grand Island, N.Y.), 2 mM L-glutamine, and penicilin-stereptomycin (100 IU/mL, GIBCO) for 60 minutes. Thereafter, the cells were divided into wells in a 6-well plate at a density of 20×10^3 cells/cm^2 and then bromodeoxyuridine (BrdU, 10 uM, Sigma-Aldrich) was added to the culture medium over 3 days to prevent the proliferation of fibroblasts and progenitor cells (Lokuta et al, 1994; Miragoli et al., 2006).
The cells were cultured in an incubator under conditions of […], 5% CO2, and a temperature of 37° C. for the next experiment.
Cultured cells were divided into a control group and an experimental group for an MKX-2 treatment, and culture media of both groups were replaced with culture media free of FBS before the MKX-2 treatment. The treatment times were 0 hour, 12 hours, and 24 hours and concentrations of MKX-2 were 0.1 ng/μl and 0.01 ng/μl for each of the control group and the experimental group. To induce apoptosis in both the control group and the experimental group, 0.03% H2O2 was added to both groups 30 minutes before the MKX-2 treatment.
A cover glass was placed in the 6-well plate and cells cultured thereon were washed with PBS, which were fixed with 100% ethanol for 5 seconds at room temperature and then washed again with PBS. A freshly prepared permeabilization solution (0.1% Triton X-100+0.1% sodium citrate) was added to the wells and then treated for 10 minutes at a temperature of 37° C. in an incubator. Thereafter, cell cultures were washed twice with PBS for 5 minutes, a mixture solution of label solution and enzyme solution in an in situ cell death detection kit (Roche, Germany) was dropped in an amount of 30 μl on each cover glass, which was slightly covered with a parafilm thereafter. In an incubator at a temperature of 37° C., the cell cultures were reacted for 1 hour, washed twice with PBS for 5 minutes, and then treated with DAPI (Sigma) for 10 minutes at room temperature. After washing the cell cultures with PBS, a fluorescence microscope was used to observe the cell cultures and randomly select 10 locations, count the numbers of DAPI dyed cells and TUNEL positive cells at those 10 locations, and calculate a ratio of the DAPI dyed cells to the TUNEL positive cells. […]

SMILES: CC[C@H](C)[C@H](N)C(=O)N[C@@H](CO)C(=O)NCC(=O)N[C@@H](CC(C)C)C(=O)N[C@@H](CCCNC(=N)N)C(=O)N[C@@H](CO)C(=O)N[C@@H](CC(C)C)C(=O)N[C@H](C(=O)N[C@H](C(=O)N[C@@H](CC(C)C)C(=O)N[C@@H](CC(C)C)C(=O)N[C@@H](CCCNC(=N)N)C(=O)N[C@@H](C)C(=O)N[C@@H](CC(C)C)C(=O)NCC(=O)N[C@@H](C)C(=O)N[C@@H](CCC(N)=O)C(=O)N[C@@H](CCCCN)C(=O)N[C@@H](CCC(=O)O)C(=O)N[C@@H](CC(C)C)C(=O)N[C@@H](CCSC)C(=O)O)[C@@H](C)O)[C@@H](C)O [MKX-2]
- numbers of TUNEL positive cells/numbers of DAPI dyed cells (MKX-2 0.01 ng/uL, 0 hour): 10.12 ± 2.03%
- numbers of TUNEL positive cells/numbers of DAPI dyed cells (MKX-2 0.01 ng/uL, 12 hours): 35.82 ± 3.95
- numbers of TUNEL positive cells/numbers of DAPI dyed cells (MKX-2 0.01 ng/uL, 24 hours): 44.16 ± 3.34%
- numbers of TUNEL positive cells/numbers of DAPI dyed cells (MKX-2 0.1 ng/uL, 0 hour): 5.38 ± 2.36%
- numbers of TUNEL positive cells/numbers of DAPI dyed cells (MKX-2 0.1 ng/uL, 12 hours): 44.35 ± 3.91%
- numbers of TUNEL positive cells/numbers of DAPI dyed cells (MKX-2 0.1 ng/uL, 24 hours): 47.97 ± 2.85%

Source: patent publication US20140378378A1, “ERYTHROPOIETIN-DERIVED PEPTIDE AND USE THEREFOR” (priority 2011, published 2014)
